# Assay results as given in patent publication US20040171795A1, “Novel peptides” (priority 2000, published 2004).
# Experiment: Evaluation of toxicity of the peptide, tail vein administration
# Type: in vivo
# Conditions: female BALB/c mouse, 5 mg/kg
# Experimental: The peptide of the present invention was administered to a mouse from its tail vein to thereby evaluate its toxicity. The mouse used was a female BALB/c mouse of 5 week old, and the peptide was used at a dose of 5 mg/kg.
compound,measurement,value
CC(C)C[C@H](NC(=O)[C@H](C)NC(=O)[C@H](CC(C)C)NC(=O)[C@H](CCC(N)=O)NC(=O)[C@H](Cc1c[nH]cn1)NC(=O)[C@@H](NC(=O)[C@H](Cc1c[nH]c2ccccc12)NC(=O)[C@H](CO)NC(=O)[C@H](CCCNC(=N)N)NC(=O)[C@@H]1CCCN1C(=O)[C@H](Cc1c[nH]cn1)NC(=O)[C@H](CC(C)C)NC(=O)[C@H](CCCNC(=N)N)NC(=O)[C@H](CC(C)C)NC(=O)[C@H](Cc1ccc(O)cc1)NC(=O)[C@H](CCCNC(=N)N)NC(=O)[C@H](CC(C)C)NC(=O)[C@H](CCCNC(=N)N)NC(=O)[C@H](CC(C)C)NC(=O)[C@H](C)NC(=O)[C@H](CC(C)C)NC(=O)[C@H](CCC(N)=O)NC(=O)[C@H](Cc1c[nH]cn1)NC(=O)[C@@H](NC(=O)[C@H](Cc1c[nH]c2ccccc12)NC(=O)[C@H](CO)NC(=O)[C@H](CCCNC(=N)N)NC(=O)[C@@H]1CCCN1C(=O)[C@H](Cc1c[nH]cn1)NC(=O)[C@H](CC(C)C)NC(=O)[C@H](CCCNC(=N)N)NC(=O)[C@H](CC(C)C)NC(=O)[C@H](Cc1ccc(O)cc1)NC(=O)[C@H](CCCNC(=N)N)NC(=O)[C@@H](N)[C@@H](C)O)C(C)C)C(C)C)C(=O)N[C@@H](CCCNC(=N)N)C(=O)N[C@@H](CO)C(=O)O [SEQ ID NO: 16],toxicity after tail vein administration,no significant effects
